Measured values published in paper PMC5595237 (Nature, 2017).
One block for each binder: values may come before it.

Protein sequences, listed by entry. Tags and fused reporters are not part of them. Lines headed by an entry give the natural chain unless they say otherwise; changes in a name come on top. Residues count along the entry.
UniProt Q86V24, 100-386: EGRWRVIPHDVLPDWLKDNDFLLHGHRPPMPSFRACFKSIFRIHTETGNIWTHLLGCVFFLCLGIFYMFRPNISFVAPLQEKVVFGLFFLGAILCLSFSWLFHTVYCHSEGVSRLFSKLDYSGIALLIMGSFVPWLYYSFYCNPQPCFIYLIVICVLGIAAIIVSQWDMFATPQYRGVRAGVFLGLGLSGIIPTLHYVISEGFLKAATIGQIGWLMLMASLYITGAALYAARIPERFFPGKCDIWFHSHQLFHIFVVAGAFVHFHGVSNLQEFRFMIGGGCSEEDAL
UniProt Q96A54: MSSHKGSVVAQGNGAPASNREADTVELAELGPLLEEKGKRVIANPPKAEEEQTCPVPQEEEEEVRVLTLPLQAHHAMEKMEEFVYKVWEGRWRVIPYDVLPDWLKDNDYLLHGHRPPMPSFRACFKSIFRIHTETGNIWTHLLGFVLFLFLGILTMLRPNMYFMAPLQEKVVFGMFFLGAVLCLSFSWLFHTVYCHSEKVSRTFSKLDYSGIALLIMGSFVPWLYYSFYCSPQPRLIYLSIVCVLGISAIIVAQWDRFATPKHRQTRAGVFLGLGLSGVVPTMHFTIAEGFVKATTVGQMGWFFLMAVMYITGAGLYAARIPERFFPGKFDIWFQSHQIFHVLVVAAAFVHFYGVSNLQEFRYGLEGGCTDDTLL

Legend:
Assay in all cases: crystal structure
[1] = target: N-terminally truncated construct of human AdipoR2 (residues 100-386) (human, UniProt Q86V24)
[2] = target: human ADIPOR2 as crystallised in entry 3WXW (revised structure 5LWY, S2) (human, UniProt Q86V24)
[3] = target: human ADIPOR1 as crystallised in entry 3WXV (revised structure 5LXG) (human, UniProt Q96A54)

binding result [1]: binds
B1: single chain variable fragment (scFv) of the anti-ADIPOR monoclonal antibody (scFv, V domains shown)
VH: EVLLQQSGPELVKPGASVRITCKASGYTFTDFNMDWVKQSPGKSLEWIGDFNPNSGGSIYNQKFKDKATFTVDKSSSTAYMELRSLTFEDTAVYYCARETGTAWFAYWGQGTLVTVSA
VL: DIQMTQSPASLSASVGETVTITCRASGNIHNFLAWYQQKQGKSPQVLVYNAKTLADGVPSRFSGSGSGTQYSLKINSLQPEDFGSYYCQQFWSTPYTFGGGTKLEIN

binding result [2]: binds
binding result [3]: binds
B2: Fv fragment of the anti-ADIPOR antibody (as in the deposited entries 3WXV and 3WXW) (antibody, V domains shown)
VH: B1 VH
VL: B1 VL
